From BindingDB's records for US9120797

Sequences of proteins named here, by UniProt entry; tags and fusion partners are left off. A change or cut given only in a name is not applied to a line headed by its entry.
UniProt P41146: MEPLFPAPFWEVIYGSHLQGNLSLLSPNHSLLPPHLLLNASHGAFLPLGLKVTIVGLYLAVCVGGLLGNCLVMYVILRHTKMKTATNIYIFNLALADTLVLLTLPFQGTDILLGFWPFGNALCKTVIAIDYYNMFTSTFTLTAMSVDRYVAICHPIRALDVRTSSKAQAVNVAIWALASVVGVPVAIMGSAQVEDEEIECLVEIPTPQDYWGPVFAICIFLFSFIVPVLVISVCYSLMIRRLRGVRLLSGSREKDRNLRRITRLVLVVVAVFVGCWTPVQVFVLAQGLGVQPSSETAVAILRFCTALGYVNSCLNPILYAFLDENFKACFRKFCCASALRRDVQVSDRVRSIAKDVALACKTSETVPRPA
UniProt P35372, whole entry, looked up: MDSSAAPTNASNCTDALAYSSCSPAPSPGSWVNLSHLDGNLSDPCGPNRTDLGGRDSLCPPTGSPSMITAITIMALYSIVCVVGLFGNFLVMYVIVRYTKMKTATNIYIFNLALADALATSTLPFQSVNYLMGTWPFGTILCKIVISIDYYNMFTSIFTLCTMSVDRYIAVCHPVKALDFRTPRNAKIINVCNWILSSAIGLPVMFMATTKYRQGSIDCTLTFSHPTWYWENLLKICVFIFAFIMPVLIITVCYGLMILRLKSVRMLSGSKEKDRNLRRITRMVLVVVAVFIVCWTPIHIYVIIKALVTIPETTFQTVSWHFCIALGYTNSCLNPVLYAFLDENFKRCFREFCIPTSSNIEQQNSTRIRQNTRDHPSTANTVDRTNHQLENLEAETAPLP

Assays:
Nociceptin receptor = Nociceptin receptor (Homo sapiens, UniProt P41146); test: Binding Assay; settings: pH 7.4
Mu-type opioid receptor = Mu-type opioid receptor (Homo sapiens, UniProt P35372); test: Binding Assay

Row | SMILES | Ki (Nociceptin receptor) [nM] | Ki (Mu-type opioid receptor) [nM]
1 | CN(C)C1(c2ccccc2)CCC2(CC1)NCCc1c2[nH]c2cc(F)ccc12 (stereo not given) | 6.9 | 17
2 | CN(C)C1(c2ccc(F)cc2)CCC2(CC1)c1sc3ccccc3c1CC[S+]2[O-] (stereo not given) | 62 | –
3 | CC(=O)N1CCc2c([nH]c3cc(F)ccc23)C12CCC(c1ccccc1)(N(C)C)CC2 (stereo not given) | – | 1.7
4 | CN(C)C1(c2cccc(F)c2)CCC2(CC1)OCCc1c2[nH]c2ccccc12 (stereo not given) | – | 2.1
